AlphaSeq binding of Ab-14 heavy chain variants to a spike HR2 peptide

Target peptide (SARS-CoV-2 spike, HR2 region): PDVDLGDISGINAS

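This is the validation round: designs drawn from the data on random variants, tested in the same kind of assay. Their group label is 14H_En_HC (En: ensemble of fine-tuned language models; HC: hill climbing; a sequence that several methods proposed may carry one label only). Affinity was read by AlphaSeq, a pooled yeast mating assay with surface-displayed partners. Pairs that bind mate more often; barcode pairs of the diploids are counted by sequencing. Scores were corrected for input abundance and mapped to Kd with protein pairs of known affinity run in the same pool. Each pool was mated in six replicate cultures.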

Each scFv is VH, three GGGGS repeats, VL, as in the parent Ab-14, and differs from it in the CDRs of the heavy chain only.
VH: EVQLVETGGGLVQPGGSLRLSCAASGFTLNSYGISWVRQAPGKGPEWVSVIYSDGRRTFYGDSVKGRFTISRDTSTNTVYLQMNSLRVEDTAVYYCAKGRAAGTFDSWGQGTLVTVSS
VL: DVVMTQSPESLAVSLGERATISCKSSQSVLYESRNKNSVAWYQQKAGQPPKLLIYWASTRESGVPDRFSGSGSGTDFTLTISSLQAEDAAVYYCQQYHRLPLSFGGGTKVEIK

Each variant is given by its three heavy chain CDRs, as the data file delimits them; those of the parent are GFTLNSYGIS, VIYSDGRRTFYGDSVK, GRAAGTFDS.
Values are log10 of the apparent Kd in nM; lower means stronger binding.
"nd" marks a missing value. The strain was present, yet no cells mated with the target were sequenced in that replicate, which points to weak or no binding.
Nonspecific signal, from three strains lacking the peptide, appeared in 1% of pairings of all heavy chain designs, centred on 2.08 (5% of these signals below 0.84); values are not corrected for it. The control count says in how many pairings with the empty strains this scFv gave a signal, with their mean in brackets.

CDR-H1	CDR-H2	CDR-H3	log10 Kd (nM) by replicate	empty controls
GFDLNEYGIS	VIYADGRRTAYTDSVK	GQVAGTFDA	-0.17 / 0.21 / -0.39 / 0.17 / 0.11 / 0.19	0 of 18
GFDLNEYGIS	VIYADGRRTFYVDSVK	GVNAGTFDM	-0.03 / -0.08 / -0.42 / -0.88 / -0.35 / -0.35	0 of 18
GFDLNEYGIS	VIYADGRRTFYADSVK	GSEAGTFVM	1.39 / nd / 1.91 / 1.62 / 0.55 / nd	0 of 18
GFDLNEYGIS	VIYADGKRTFYTDSVK	GGNAGTFDS	0.18 / 0.01 / 0.07 / -0.48 / -0.03 / 0.19	0 of 18
GFDLNEYGIS	VIYADGKRTFYADSVK	GEVAGTFVS	-0.17 / -0.52 / -0.23 / -0.59 / -0.08 / 0.01	0 of 18
GFDLNEYGIS	VIYADGRRTFYSDSVK	GNTAGTFDE	0.39 / 0.63 / 0.52 / 0.21 / 1.07 / 0.32	0 of 18
GFDINEYGIS	VIYADGRRTFYADSVK	GQNAGTFDV	0.24 / 0.15 / -0.11 / -0.01 / -0.34 / 0.29	0 of 18
GFDLNEYGIS	VIYADGKRTFYADSVK	GEAAGSFDQ	0.39 / 0.63 / 0.87 / 0.90 / 0.17 / 1.07	0 of 18
GFDLNEYGIS	VIYADGRRTFYTDSVK	GEEAGIFDV	nd / nd / nd / nd / nd / nd	0 of 18
GFNLDEYGIS	VIYADGRRTFYADSVK	GEGAGTFDF	2.26 / 1.49 / 1.34 / 0.70 / 1.89 / 1.43	0 of 18
GFDLNEYGIS	VIYADGSRTVYADSVK	GEAAGTFDQ	0.31 / -0.49 / -0.44 / -0.37 / -0.30 / -0.38	1 of 18 (2.42)
GFDLDEYGIS	VIYADGRRTFYIDSVK	GQAAGTFDQ	-0.16 / 0.12 / 0.09 / -0.29 / 0.15 / -0.16	0 of 18
GFDLNEYGIS	VIYADGRRTFYIDSVK	GTNAGTFDQ	-0.67 / -0.49 / -0.86 / -1.27 / -0.88 / -0.88	1 of 18 (1.80)
GFDLNEYGIS	VIYADGRRTSYIDSVK	GNVAGTFDL	-0.01 / 0.35 / -0.07 / -0.66 / 1.90 / -0.19	0 of 18
GFDLNEYGIS	VIYADGMRTFYTDSVK	GANAGTFDQ	-0.41 / -0.03 / -0.31 / -0.76 / -0.10 / 1.05	0 of 18
GFDLNEYGIS	VIYADGRRTFYVDSVK	GEAAGTFDS	-0.98 / -0.85 / -1.49 / -1.34 / -1.37 / -0.60	0 of 18
GFDLNEYGIS	VIYADGRRTFYADSVK	GNVAGTFVS	1.10 / 1.22 / 1.00 / 0.74 / 0.76 / 0.61	0 of 18
GFDLNEYGIS	VIYADGKRTFYVDSVK	GVNAGTFDV	0.59 / 0.82 / 0.59 / 0.69 / 0.57 / 0.57	0 of 18
GFDLNEYGIS	VIYADGRRTYYADSVK	GKNAGTFDQ	0.30 / -0.34 / -0.48 / -0.49 / 0.11 / -0.09	1 of 18 (0.91)
GFDLNEYGIS	VIYADGMRTSYIDSVK	GEQAGTFDL	-0.09 / -0.35 / -0.25 / -0.50 / -0.29 / -0.32	0 of 18
GFDLNEYGIS	VIYADGRRTFYADSVK	GGAAGTFDQ	-0.24 / -0.37 / -0.42 / -0.36 / -0.30 / -0.38	0 of 18
GFDLNEYGIS	VIYADGRRTFYSDSVK	GENAGTFDM	0.06 / -0.18 / -0.43 / -0.45 / 0.06 / -0.26	0 of 18
GFDLNEYGIS	VIYADGRRTFYADSVK	GNTAGTFDQ	-0.25 / -0.01 / -0.32 / -0.47 / -0.77 / -0.22	0 of 18
GFDLDEYGIS	VIYADGRRTFYIDSVK	GETAGTFDL	0.24 / 0.28 / 0.51 / -0.07 / 0.26 / 0.49	1 of 18 (3.91)
GFDLNEYGIS	VIYADGRRTAYLDSVK	GQVAGTFDS	-0.77 / -0.91 / nd / -0.47 / -0.93 / -0.16	0 of 18
GFDLNEYGIS	VIYADGRRTAYTDSVK	GEVAGTFDS	-0.09 / -0.53 / -0.24 / -0.45 / -0.28 / -0.40	0 of 18
GFDLNEYGIS	VIYADGRRTAYIDSVK	GEIAGTFDA	-0.06 / -0.49 / -0.32 / -0.50 / -0.36 / -0.08	0 of 18
GFSLDEYGIS	VIYADGRRTFYQDDVK	GNVAGTFDI	-0.54 / -0.65 / -0.68 / -0.69 / -1.09 / -0.68	0 of 18
GFNLNEYGIS	VIYADGRRSFYSDSVK	GETAGTFDV	0.31 / -0.41 / -0.34 / 1.07 / -0.61 / 0.93	0 of 18
GFDLNEYGIS	VIYADGRRTAYTDSVK	GHTAGTFKL	0.27 / 0.45 / 1.03 / 0.88 / 0.61 / 0.21	0 of 18
GFDINEYGIS	VIYADGRRTAYADSVK	GNAAGTFDV	0.42 / 0.03 / -0.46 / -0.44 / -0.27 / -0.60	0 of 18
GFDLDEYGIS	VIYADGMRTFYADSVK	GEAAGTFDI	-0.47 / -0.51 / -0.54 / -0.28 / -0.45 / -0.30	2 of 18 (3.28)
GFDLNEYGIS	VIYADGVRTFYADSVK	GTAAGTFDQ	0.39 / 0.39 / 0.11 / 0.41 / 0.01 / 0.21	0 of 18
GFDLNEYGIS	VIYADGLRTSYIDSVK	GQLAGTFDQ	0.38 / 0.27 / -0.48 / -0.42 / -0.10 / -0.19	0 of 18
GFNLNEYGIS	VIYADGRRTFYTDDVK	GEVAGTFDL	-0.93 / -0.74 / -0.92 / -0.86 / -0.78 / -0.90	0 of 18
GFDLSEYGIS	VIYADGRRTFYTDSVK	GEEAGTFDE	-0.25 / -0.22 / -0.18 / -0.49 / -0.13 / -0.02	0 of 18
GFDLNEYGIS	VIYADGRRTAYIDSVK	GKNAGTFDV	-0.49 / -0.29 / -0.43 / -0.59 / -0.66 / 0.12	0 of 18
GFDLNEYGIS	VIYADGRRTAYADSVK	GEAAGTFFS	0.48 / 0.82 / 0.51 / 0.37 / 0.21 / 0.85	0 of 18
GFDLNEYGIS	VIYADGRRTFYSDSVK	GANAGTFDV	-0.19 / -0.46 / -0.55 / -0.96 / -0.79 / -0.42	2 of 18 (1.70)
GFDLNEYGIS	VIYADGRRTFYADSVK	GNVAGTFDE	-0.49 / -0.63 / -0.52 / -0.52 / -0.63 / -0.41	0 of 18
GFDLNEYGIS	VIYADGRRTFYDDSVK	GEAAGTFDQ	-0.15 / -0.19 / -0.08 / -0.25 / -0.33 / -0.22	0 of 18
GFDIDEYGIS	VIYADGRRTFYADSVK	GTNAGTFDE	0.17 / 0.77 / -0.23 / -0.18 / -0.27 / -0.27	0 of 18
GFDLNEYGIS	VIYADGRRTAYDDSVK	GQVAGTFDV	-0.37 / -0.58 / -0.60 / -0.84 / -0.39 / -0.45	0 of 18
GFDLNEYGIS	VIYADGRRTAYLDSVK	GQLAGTFDT	-0.37 / -0.41 / -0.32 / -0.48 / -0.48 / -0.33	1 of 18 (2.02)
GFDLNEYGIS	VIYADGQRTAYDDSVK	GQVAGTFDS	-0.84 / -0.73 / -0.75 / -1.07 / -0.73 / -0.10	1 of 18 (1.25)
GFDLNEYGIS	VIYADGRRTAYTDSVK	GANAGTFDV	0.88 / 0.05 / 0.52 / -0.40 / -0.31 / -0.05	1 of 18 (1.39)
GFDLNEYGIS	VIYADGRRTFYADSVK	GQTAGTFDS	-0.59 / -0.61 / -0.67 / -0.76 / -0.57 / 0.00	0 of 18

For reference, 2 entries of the list once more:

CDR-H1,CDR-H2,CDR-H3,log10 Kd (nM) by replicate,empty controls
GFDLNEYGIS,VIYADGRRTFYTDSVK,GEEAGIFDV,nd / nd / nd / nd / nd / nd,0 of 18
GFNLNEYGIS,VIYADGRRTFYTDDVK,GEVAGTFDL,-0.93 / -0.74 / -0.92 / -0.86 / -0.78 / -0.90,0 of 18

Of ten entries with the parent sequence, four were seen in most replicates (averages 0.34 to 2.37), three in one and three in none, so single entries are noisy.
A sequence measured in both rounds can read differently, since the two assays cover different ranges.
In the paper, a design with two or fewer of six values counts as a poor binder.

Source: Li et al. 2023 (doi:10.1038/s41467-023-39022-2), MIT Lincoln Laboratory and A-Alpha Bio; data file from the FLAb repository.